Results taken from paper PMC4740242 (Cell reports, 2016).

Legend:
Format in all cases: biochemical
Details in all cases: single-dose screen
ERBB2 = ERBB2 (Homo sapiens, UniProt P04626); assay: Wild-type kinase panel, ERBB2
BMX/ETK = target: T1, BMX/ETK (Homo sapiens, UniProt P51813); assay: Wild-type kinase panel, BMX/ETK
T1 sequence (P51813 1-675): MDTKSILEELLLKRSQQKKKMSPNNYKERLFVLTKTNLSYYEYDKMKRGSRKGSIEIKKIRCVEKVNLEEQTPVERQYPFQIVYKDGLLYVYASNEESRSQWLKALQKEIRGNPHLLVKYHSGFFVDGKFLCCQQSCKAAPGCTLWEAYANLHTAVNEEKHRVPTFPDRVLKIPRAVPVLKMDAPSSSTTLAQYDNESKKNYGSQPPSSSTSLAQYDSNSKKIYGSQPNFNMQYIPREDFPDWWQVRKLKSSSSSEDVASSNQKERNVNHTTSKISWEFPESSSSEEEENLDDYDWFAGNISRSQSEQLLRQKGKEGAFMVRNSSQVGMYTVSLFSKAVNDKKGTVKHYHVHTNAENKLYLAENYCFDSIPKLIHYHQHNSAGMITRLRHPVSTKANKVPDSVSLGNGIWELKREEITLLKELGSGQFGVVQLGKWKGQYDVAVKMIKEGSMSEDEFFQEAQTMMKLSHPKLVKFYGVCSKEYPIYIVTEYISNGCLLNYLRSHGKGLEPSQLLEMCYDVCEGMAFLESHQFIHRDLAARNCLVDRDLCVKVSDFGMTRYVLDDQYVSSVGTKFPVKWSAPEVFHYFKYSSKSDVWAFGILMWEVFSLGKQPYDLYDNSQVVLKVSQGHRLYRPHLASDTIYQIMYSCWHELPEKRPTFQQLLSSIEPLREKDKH

EGFR = EGFR (Homo sapiens, UniProt P00533); assay: Wild-type kinase panel, EGFR

EGFR/ErbB2/ErbB4 Inhibitor
more than 50%: inhibition of ERBB2 (ERBB2) | inhibition of BMX/ETK (BMX/ETK) | inhibition of EGFR (EGFR)
